## Measured affinities in a library of Ab-14 light chain variants

Values reported by Li et al. 2023, doi:10.1038/s41467-023-39022-2 (FLAb copy).

Binding partner: SARS-CoV-2 spike HR2 peptide, sequence PDVDLGDISGINAS.

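The starting antibody came from a phage panning campaign against this peptide. This is the validation round: designs drawn from the data on random variants, tested in the same kind of assay. Their group label is 14L_Ctrl (Ctrl: baseline library sampled from a position-specific scoring matrix, with some repeated check sequences). The scFvs were displayed on barcoded MATa yeast, the peptide on MATalpha yeast. Pairs that bind mate more often; barcode pairs of the diploids are counted by sequencing. Each replicate has its own calibration line, from reference interactions of the BCL2 family. There are six technical replicates.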

The variants keep the heavy chain, the linker and the frameworks of Ab-14 (scFv order VH, a (GGGGS)3 linker, VL).
VH: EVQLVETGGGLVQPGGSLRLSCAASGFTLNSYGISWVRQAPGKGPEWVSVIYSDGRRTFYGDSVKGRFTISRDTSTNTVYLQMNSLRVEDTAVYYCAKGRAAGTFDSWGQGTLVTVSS
VL: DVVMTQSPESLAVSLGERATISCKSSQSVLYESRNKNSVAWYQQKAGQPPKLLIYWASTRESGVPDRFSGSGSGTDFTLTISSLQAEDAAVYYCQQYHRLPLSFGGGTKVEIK

The parent's light chain CDRs are KSSQSVLYESRNKNSVA, WASTRES, QQYHRLPLS; each variant's own CDRs replace them letter for letter.
The read-out is the apparent dissociation constant on a log10 scale (nM): the lower, the stronger.
Where no diploid with the target was found in that replicate, the entry reads "ND": below detection, most likely a poor binder, though not proof of it.

| CDR-L1 | CDR-L2 | CDR-L3 | log10 Kd (nM) by replicate | signal with controls |
|---|---|---|---|---|
| KSSQSVLYASRNKNSVA | WASTREN | QQYHRLPLS | ND / 2.04 / ND / ND / ND / ND | 2 of 18 (2.70) |
| KSSQSVLYEGRNKNSVA | WASTRWS | QQYHRLPLE | ND / ND / ND / ND / ND / ND | 1 of 18 (1.50) |
| KSSQSVLYESRFKNSVA | WASEPES | QQYHRLPLS | ND / ND / ND / ND / ND / ND | 0 of 18 |
| KSSQSVLYESYNKNSVA | NASTRES | QQYHRLPLS | 0.30 / 0.67 / 0.52 / 0.39 / 0.23 / 0.22 | 1 of 18 (2.61) |
| KSQQSVLYESRMKNSVA | WASTRES | QSYHRLPPS | ND / 1.89 / ND / ND / 2.74 / ND | 1 of 18 (2.65) |
| KSSQSVLYESRWKNSVA | AASTRES | GQYHRLPLS | 2.59 / ND / ND / 2.99 / ND / ND | 1 of 18 (1.82) |
| KSSQSVLYESRNPNSVA | WASTRES | QEYHRLPLS | ND / ND / ND / ND / ND / ND | 0 of 18 |
| KSPTSVLYESRNKNSVA | QASTRES | QDPHRLPLS | -0.29 / 0.04 / -0.04 / -0.16 / -0.23 / -0.20 | 1 of 18 (2.93) |
| KMSQSVLYESRNKNSVA | RASTRES | QQYHRLPLS | 0.59 / 0.59 / 0.30 / 0.67 / 1.01 / 0.86 | 1 of 18 (2.36) |
| KLSWSVLYESRNLNSVA | WASTRES | QQYHRLPLS | 2.17 / 1.28 / 2.01 / 1.40 / 1.23 / 1.50 | 0 of 18 |
| KVKQSQAYESRNKNSVA | WASTRES | QQYHRLPLS | 1.53 / 1.32 / 1.52 / 1.86 / 1.23 / 1.43 | 1 of 18 (2.53) |
| KLSQSVLYNSANKRSVA | WASTRES | QRLHRLPLS | ND / ND / ND / ND / ND / ND | 0 of 18 |
| KSSQSVLYESRNKNSVA | WASTRRT | QQYHRLPLS | ND / ND / ND / ND / ND / ND | 0 of 18 |
| KSSQSVLYESRNQNSVA | WASVRES | QQYHRLPLN | ND / ND / ND / ND / ND / ND | 0 of 18 |
| KSSQSVLYESRNKNSVA | WASTRES | QQYHRTPLS | ND / ND / ND / ND / ND / ND | 1 of 18 (2.16) |
| KSSQSVLYESRNKQSVA | NASTRES | QQYHRLPLS | 0.95 / 1.02 / 0.82 / 0.71 / 0.73 / 1.05 | 4 of 18 (3.18) |
| KSSQSVLYESRGKNSVA | QASGRES | QQYHRLPLS | ND / ND / 1.49 / ND / ND / ND | 0 of 18 |
| KISQSVLYESSNENSVA | WASTRES | QQYHRLPLS | 0.71 / 1.27 / 2.20 / 2.57 / 1.09 / 1.38 | 0 of 18 |
| KSSQSVLYESRNENSVA | AASTREF | QQCHRLVLS | ND / ND / ND / ND / ND / ND | 0 of 18 |
| KMSQSILYESRNKNSVA | EASTRES | QQYHRLPLS | 0.19 / -0.06 / -0.18 / -0.35 / -0.22 / -0.11 | 1 of 18 (2.33) |
| KSSQSVLYESRNKNSVA | GASTRES | QQYNRLPLK | 0.89 / 0.71 / 0.73 / 0.47 / 0.64 / 0.69 | 1 of 18 (3.68) |
| KSSQLVLYESRNKNSVA | HASTRES | QQYHRLPLS | 0.21 / 0.06 / 0.04 / 0.20 / -0.13 / 0.23 | 2 of 18 (2.88) |
| RSSQSVLYESLNKNSVA | WASTRES | QQYGRLPLS | 2.60 / 1.81 / 2.88 / 1.13 / 1.13 / 2.41 | 0 of 18 |
| KVSQSVLYESTNKNSVA | NASTAES | QQYHRLPLS | 0.54 / 0.68 / 0.27 / 0.43 / 0.97 / 0.85 | 3 of 18 (3.10) |
| KGSQSVLYESRNKNSVA | EASTRES | QQYHILPLS | 0.65 / 0.85 / 0.23 / 0.29 / 0.50 / 0.53 | 0 of 18 |
| KSSQSVYYESRNTNSVA | WASTRES | QQYHRLPLS | ND / 2.06 / 1.04 / 1.19 / 1.28 / 1.90 | 1 of 18 (4.26) |
| KSSTSVLYESRNKNSVA | WVSTRER | QQYCRLPLS | ND / ND / ND / ND / 1.98 / 3.15 | 0 of 18 |
| KSSQSELYESTNKNSVA | YASTRES | QMYHYLPIS | ND / ND / ND / ND / ND / 1.10 | 0 of 18 |
| KISWSVLGESSNKNSVA | WASTRES | QQYHRVPLS | ND / ND / ND / 1.61 / 1.38 / 4.63 | 3 of 18 (2.58) |
| KNSQSVLYESRNKNNVA | WASTRES | QQYDRLPLS | 2.43 / 0.75 / 1.12 / 1.42 / 1.71 / 1.32 | 2 of 18 (1.45) |
| KSSESGLYESQNKNSVA | WASTRES | SQYHRLPPS | ND / ND / ND / ND / ND / ND | 1 of 18 (2.66) |
| KSSMSVLYESRNKNSVA | WASTRAS | QQYHRLHLS | ND / ND / ND / ND / ND / ND | 0 of 18 |
| KSSQSVLYESRNKNSVA | MASTRES | QQYHRLPLS | 1.47 / 2.49 / 2.68 / 0.96 / 2.29 / 1.46 | 0 of 18 |
| KTSQSLLYESRNKNSVA | WASTREN | QQYHRLSLS | ND / ND / ND / ND / ND / ND | 0 of 18 |
| KSSQSVLFEHRNKNSVA | WASTRES | QQYHRLPIS | ND / ND / ND / ND / ND / ND | 1 of 18 (0.90) |
| QSSQSVLYESRNCNSVA | NASTRES | QQYHRLPLS | 0.98 / 1.00 / 0.93 / 0.65 / 1.23 / 1.45 | 3 of 18 (2.57) |
| KSSQSVLYESRNLNSVA | NASTRES | QQYHRLPLS | 0.11 / -0.19 / 0.14 / 0.34 / 0.04 / 0.39 | 0 of 18 |
| KSSQSVLNESDNKNSVA | SASTRES | QWYTRLPLS | 1.40 / 0.64 / 0.55 / 0.27 / 0.76 / 0.46 | 0 of 18 |
| KSSQSVLYESRNLNSVA | WASTRVS | QQYHRLPLS | 0.89 / 0.93 / 1.14 / 1.35 / 1.70 / 2.25 | 0 of 18 |
| KSSQAVLMESRNKNSVA | WGSTRES | QQYHRLPLS | 1.68 / 1.47 / 1.91 / 1.01 / 1.69 / 1.88 | 0 of 18 |
| KSSQSVLYESRNKNSVA | WGSTREH | QQYHRLPLS | 1.77 / 1.43 / 1.79 / 1.79 / 1.89 / 2.12 | 1 of 18 (3.64) |
| KDSQAVPYEIRNFNSVA | WASTRES | QTYHRLPLS | ND / ND / ND / ND / 4.05 / 2.45 | 0 of 18 |
| KSMDSVLYESRNKNSVA | WASRRES | QSYHGLPLS | 2.16 / 3.19 / 2.40 / 3.58 / ND / ND | 0 of 18 |
| KTSQSVLYESRNKNSVA | WASTRES | QMYHRLPLS | ND / ND / ND / ND / ND / ND | 0 of 18 |
| KSSQSQLYESENKNSVA | SASTRES | QQYHRLPLI | 1.19 / 0.65 / 0.93 / 0.57 / 0.78 / 1.21 | 0 of 18 |
| KISQSDLYESRNKNSVA | WASTRES | QQYHRYPLS | ND / 2.19 / ND / ND / 3.35 / ND | 1 of 18 (1.95) |
| KSLESLVGESRNKNSVA | QAHTRES | QSYHRLPLS | 0.65 / 0.71 / 0.41 / 0.33 / 0.34 / 0.80 | 1 of 18 (2.49) |
| KISQSVLYESANHNSVA | WASTRES | QQPHRLPLK | ND / ND / ND / ND / ND / ND | 0 of 18 |
| KDSQSVLYESFNKNSVA | GASTREN | QQYHRLVLS | ND / ND / ND / ND / ND / ND | 0 of 18 |
| KSSQSVLYESRNKNSVA | WASTRES | QQYHTLPLS | ND / 1.77 / 2.13 / 2.60 / 2.91 / ND | 1 of 18 (2.00) |
| KSSQSVLYESRSKNSVA | DASTRES | QQYHRLPLS | 1.42 / 1.33 / 1.04 / 1.01 / 1.00 / 1.03 | 3 of 18 (2.93) |
| KHSQSVLYESRNKNSIA | WASTRES | QQYHRLPLS | ND / ND / ND / ND / ND / ND | 0 of 18 |

Of ten entries with the parent sequence, four were seen in most replicates (averages 0.34 to 2.37), three in one and three in none, so single entries are noisy.
In the paper, a design with two or fewer of six values counts as a poor binder.
Background: pairings of all light chain designs with three empty control strains gave a value in 4% of cases (median 2.64, 5th percentile 1.59). Values in that range, when seen in few replicates, are hard to tell from nonspecific mating. For each scFv, signals with the empty controls are counted beside the result, with their mean in brackets.
Values of this round are not directly comparable with the first-round values of the same sequences.